Data as given in patent US20120058206A1, “ANTIALLERGIC MARINE BIOPOLYMERS” (MARINOMED BIOTECHNOLOGIE GMBH, priority 2008, published 2012).
Read-outs that look alike come from different tables or passages of the source.

Tests used:
[1] = cited from earlier work
[2] = intranasal, 300 μl (270 μg escin) in 0.12% wt iota-carrageenan solution, four times daily for five days
[3] = human patients, oral, repeatedly 50 mg escin twice daily

## escin
[1]; [3]
  average plasma level of escin: 10 ng/mL
  maximum plasma concentration of escin: 16 to 18 ng/mL
  plasma levels of escin: lower than 20 ng/ml
[1]; volunteers, 50 mg tablets
  peak levels of escin in blood plasma: 16-18 ng escin per 1 ml
[2]
  maximum plasma concentration of escin: about 90 ng/ml
[2]; after last application
  time of peak plasma concentration of escin: 6 h
